From PubChem BioAssay AID588855 (National Center for Advancing Translational Sciences (NCATS), 2011)
Only a part is listed here, and it is no random draw. Results filed as inconclusive are left out. Some structures show a salt or complex split into parts, the way the source records it. Active and inactive are the calls of the source. The call rests on the fitted dose curve; in most records, active means well fitted inhibition curve with a large enough effect; inconclusive means small, poorly fitted or top-dose-only effect; inactive means no such curve, though single readings can be large or run the other way.

test: qHTS for Inhibitors of TGF-b; settings: HepG2 CAGA-GFP TGF-b/SMAD3 reporter, GFP fluorescence, 18 h, TGF-beta stimulated, 500 pg/mL final; at 46.1 µM (top of the series); further: nearly all actives have a fitted effect of over 65% in size
On the % scale 0 is the no-effect control and ±100 the full control effect.

Row | SMILES | activity, negative = inhibition
1 | O=C(NCC1(N2CCOCC2)CCCCC1)c1ccc([N+](=O)[O-])cc1 | inactive: 3.96%
2 | CC(C)(C)OC(=O)N1CCC(N(C(=O)c2ccccc2)c2ccc(Cl)cc2)CC1 | inactive: 0%
3 | N#Cc1ccc(C(=O)NCC2(N3CCCCC3)CCCCC2)cc1 | inactive: 22.6%
4 | O=C(NCC1(N2CCOCC2)CCCCC1)c1ccccc1[N+](=O)[O-] | inactive: 8.54%
5 | CCOC(=O)C(CC)C1=NC(C)(C)Cc2ccccc21.O=[N+]([O-])c1cc([N+](=O)[O-])c(O)c([N+](=O)[O-])c1 (stereo unspecified) | inactive: -0.835%
6 | c1ccc(CN2CCC(Nc3ccccc3)CC2)cc1 | inactive: -7.35%
7 | CCCN1CCC(Nc2cc(OC)cc(OC)c2)CC1 | inactive: -3.19%
8 | O=C(NCC1(N2CCOCC2)CCCCC1)c1ccccc1 | inactive: 17.3%
9 | CN(C)C1(CNC(=O)c2cccc(C#N)c2)CCCCC1 | inactive: 4.12%
10 | O=C(NCC1(N2CCOCC2)CCCCC1)c1cc(Br)ccc1Cl | inactive: -2.1%
11 | CCCCn1nnnc1C(c1ccccc1)N1CCC(n2c(=O)[nH]c3ccccc32)CC1 (stereo unspecified) | inactive: -37.8%
12 | COc1cc(C(=O)NCC2(N3CCOCC3)CCCCC2)cc(OC)c1C | inactive: 2.48%
13 | COc1ccc(C(=O)NCC2(N3CCOCC3)CCCCC2)cc1OC | inactive: -0.514%
14 | O=Cc1ccc(N(CCCl)CCCl)cc1 | inactive: -7.69%
15 | N/C(=N\O)c1c(N)no[n+]1[O-] | inactive: -23.8%
16 | COc1cccc(C(c2nnnn2C(C)(C)C)N2CCC(n3c(=O)[nH]c4ccccc43)CC2)c1OC (stereo unspecified) | inactive: -29.8%
17 | CCOC(=O)N1CCC(Nc2ccc(C)cc2)CC1 | inactive: -9.16%
18 | O=C(OC1CN2CCC1CC2)C1c2ccccc2C=Cc2ccccc21 (stereo unspecified) | inactive: 1.46%
19 | CCc1cc(C(=O)NCC2(N3CCCCC3)CCCCC2)sc1C | inactive: -23.1%
20 | O=C(O)c1cccc(Nc2c([N+](=O)[O-])cc([N+](=O)[O-])cc2[N+](=O)[O-])c1 | inactive: -18.7%
21 | CCOc1ncccc1C(=O)NCC1(N2CCOCC2)CCCCC1 | inactive: -1.52%
22 | CN1CCC(Nc2ccc(F)c(Cl)c2)CC1 | inactive: 0.189%

Row | SMILES | activity, negative = inhibition
23 | ClCCN(CCCl)c1ccccc1 | inactive: 13.9%
24 | CCCOc1ccc(C(=O)NCC2(N(C)C)CCCCC2)cc1 | inactive: -4.6%
25 | CC(C)(C)OC(=O)N1CCC(Nc2ccccc2)CC1 | inactive: -2.45%
26 | O=C(O)C1(Nc2ccccc2)CCN(Cc2ccccc2)CC1 | inactive: -2.07%
27 | ClCCN(CCCl)c1ccc(C=C2C=CC=C2)cc1 | inactive: -5.66%
28 | CCC(CO)(C(=O)OC1CN2CCC1CC2)c1ccccc1 (stereo unspecified) | inactive: 4.5%
29 | COc1cc(C(=O)NCC2(N3CCOCC3)CCCCC2)cc(OC)c1OC | inactive: 0.753%
30 | COc1cc(OC)cc(C(=O)NCC2(N3CCOCC3)CCCCC2)c1 | inactive: 6.94%
31 | COc1cccc(C(=O)N(c2cc(C)cc(C)c2)C2CCN(C(=O)OC(C)(C)C)CC2)c1 | inactive: 0%
32 | CN1CCC(Nc2ccc(Cl)cc2)CC1 | inactive: 10.8%
33 | COc1cc(OC)cc(C(=O)NCC2(N3CCCCC3)CCCCC2)c1 | inactive: -19.6%
34 | CC(=O)N(c1ccccc1)C1CCNCC1 | inactive: -3.28%
35 | CN(C)C1(CNC(=O)c2ccc(C(C)(C)C)cc2)CCCCC1 | inactive: 18.2%
36 | CCC(c1nnnn1C1CCCCC1)N1CCC(n2c(=O)[nH]c3ccccc32)CC1 (stereo unspecified) | inactive: 7.12%
37 | Cc1ccc(NC2(C#N)CCN(Cc3ccccc3)CC2)cc1 | inactive: -4.08%
38 | Cc1ccc(C(=O)NCC2(N3CCCCC3)CCCCC2)o1 | inactive: 11.9%
39 | Fc1ccccc1NC1CCN(Cc2ccccc2)CC1 | inactive: 2.34%
40 | Cc1ccccc1NC1(C#N)CCN(Cc2ccccc2)CC1 | inactive: 0%
41 | CC(C)(C)n1nnnc1C(c1ccnc2ccccc12)N1CCC(n2c(=O)[nH]c3ccccc32)CC1 (stereo unspecified) | inactive: -6.63%
42 | COc1ccc(C(c2nnnn2C2CCCCC2)N2CCC(n3c(=O)[nH]c4ccccc43)CC2)cc1 (stereo unspecified) | inactive: -12.3%
43 | CCN1CCC(Nc2cccc(F)c2)CC1 | inactive: 0%
44 | CC(C)(C)c1ccc(C(=O)NCC2(N3CCOCC3)CCCCC2)cc1 | inactive: 25%

Row | SMILES | activity, negative = inhibition
45 | O=C(NCC1(N2CCCCC2)CCCCC1)c1ccco1 | inactive: 11.4%
46 | Cn1c(=O)[nH]cc(N(CCCl)CCCl)c1=O | inactive: 3.43%
47 | CN(C)c1ccc(C(=O)NCC2(N3CCCCC3)CCCCC2)cc1 | inactive: -8.84%
48 | Cc1ccccc1C(=O)NCC1(N(C)C)CCCCC1 | inactive: -1.78%
49 | CCOc1ccc(C)cc1CN(CCCl)CCCl | inactive: 5.1%
50 | CC(C)(C)n1nnnc1C(c1ccccc1)N1CCC(n2c(=O)[nH]c3ccccc32)CC1 (stereo unspecified) | inactive: -22.4%
51 | O=C(NCC1(N2CCOCC2)CCCCC1)c1ccc(Cl)cc1 | inactive: -2.43%
52 | O=C1CCN(Cc2ccccc2)CC1 | inactive: 25.2%
53 | O=C(NCC1(N2CCCCC2)CCCCC1)c1ccc(F)cc1 | inactive: 0.0911%
54 | O=P1(N(CCCl)CCCl)SCCCS1 | inactive: 8.02%
55 | CCCCOc1ccc(C(=O)NCC2(N3CCOCC3)CCCCC2)cc1 | inactive: -15.5%
56 | COc1ccc(NC2CCN(CCc3ccccc3)CC2)c(OC)c1 | inactive: 4.69%
57 | CCOC(=O)N1CCC(Nc2ccc(F)cc2)CC1 | inactive: 8.53%
58 | COc1ccccc1C(=O)NCC1(N2CCOCC2)CCCCC1 | inactive: -7.08%
59 | COc1cc(C(=O)NCC2(N(C)C)CCCCC2)ccc1OC(F)F | inactive: 8.17%
60 | CCOC(=O)N1CCC(Nc2cccc(C)c2)CC1 | inactive: -13.7%
61 | O=C(NCC1(N2CCCCC2)CCCCC1)c1ccc(=O)[nH]c1 | inactive: 2.41%
62 | CCCCn1nnnc1C(CC)N1CCC(n2c(=O)[nH]c3ccccc32)CC1 (stereo unspecified) | inactive: -2.76%
63 | O=C(NCC1(N2CCCCC2)CCCCC1)c1cccs1 | inactive: 23.5%
64 | COc1ccc(C(=O)NCC2(N3CCCCC3)CCCCC2)cc1 | inactive: -17.9%
65 | CCC(c1nnnn1C1CCCC1)N1CCC(n2c(=O)[nH]c3ccccc32)CC1 (stereo unspecified) | inactive: -2.79%
66 | COc1ccc(C(=O)NCC2(N3CCCCC3)CCCCC2)c(OC)c1OC | inactive: 2.44%

Row | SMILES | activity, negative = inhibition
67 | CC(C)(C)OC(=O)N1CCC(N(C(=O)c2ccccc2)c2ccc(F)cc2)CC1 | inactive: -2.47%
68 | CSc1ccccc1C(=O)NCC1(N2CCCCC2)CCCCC1 | inactive: 2.14%
69 | Cc1cccc(NC2(C#N)CCN(Cc3ccccc3)CC2)c1 | inactive: 2.73%
70 | O=c1[nH]c2ccccc2n1C1CCN(C(c2ccccc2OC(F)(F)F)c2nnnn2C2CCCCC2)CC1 (stereo unspecified) | inactive: -14%
71 | O=C(NCC1(N2CCCCC2)CCCCC1)c1ccc(Cl)nc1 | inactive: 2.71%
72 | CCOC(=O)N1CCC(Nc2ccc(OC)cc2)CC1 | inactive: -6.79%
73 | O=C(OC1CN2CCC1CC2)C1c2ccccc2Oc2ccccc21 (stereo unspecified) | inactive: 9.05%
74 | N#CC1(Nc2ccccc2)CCN(Cc2ccccc2)CC1 | inactive: -3.45%
75 | O=C(NCC1(N2CCCCC2)CCCCC1)c1ccc(Cl)s1 | inactive: 1.13%
76 | O=C1C(O)=C([N+](=O)[O-])C(=O)C(O)=C1[N+](=O)[O-] | inactive: 13%
77 | COc1ccc(Cl)cc1C(=O)NCC1(N2CCOCC2)CCCCC1 | inactive: 14.2%
78 | COc1ccc(CN(CCCl)CCCl)cc1Cl | inactive: 4.88%
79 | O=[N+]([O-])c1cc([N+](=O)[O-])c(OC2CCCCC2O)c([N+](=O)[O-])c1 (stereo unspecified) | inactive: 1.98%
80 | CN(C)c1cccc(C(=O)NCC2(N3CCCCC3)CCCCC2)c1 | inactive: -14.9%
81 | CC(C)c1ccc(NC2CCN(C(=O)OC(C)(C)C)CC2)cc1 | inactive: -3.89%
82 | CCCCn1nnnc1C(c1ccnc2ccccc12)N1CCC(n2c(=O)[nH]c3ccccc32)CC1 (stereo unspecified) | inactive: -27%
83 | COc1cc(OC)c(C(=O)NCC2(N(C)C)CCCCC2)cc1OC | inactive: -2.2%
84 | O=C(NCC1(N2CCOCC2)CCCCC1)c1cc(F)c(F)cc1Cl | inactive: -21.5%
85 | CCC(c1nnnn1C(C)(C)C)N1CCC(n2c(=O)[nH]c3ccccc32)CC1 (stereo unspecified) | inactive: 0.674%
86 | O=C(NCC1(N2CCCCC2)CCCCC1)c1cncc(Br)c1 | inactive: -4.76%
87 | COc1ccc2c(c1O)-c1c(O)c(OC)cc3c1[C@H](C2)[N+](C)(C)CC3.O=[N+]([O-])c1cc([N+](=O)[O-])c([O-])c([N+](=O)[O-])c1[O-] | inactive: 8.81%
88 | CN1CCC(Nc2cccc(F)c2)CC1 | inactive: -0.519%

Row | SMILES | activity, negative = inhibition
89 | O=C(OC1CN2CCC1CC2)c1ccc([N+](=O)[O-])cc1 (stereo unspecified) | inactive: 1.62%
90 | Cc1ccc(C(=O)NCC2(N(C)C)CCCCC2)o1 | inactive: -1.43%
91 | CCCOc1ccc(C(=O)NCC2(N(C)C)CCCCC2)cc1OC | inactive: 3.9%
92 | O=C(NCC1(N2CCOCC2)CCCCC1)c1ccccc1Br | inactive: 4.19%
93 | COc1ccc(C(c2nnnn2C2CCCC2)N2CCC(n3c(=O)[nH]c4ccccc43)CC2)cc1 (stereo unspecified) | inactive: -23.2%
94 | O=C(NCC1(N2CCCCC2)CCCCC1)c1ccc(OC(F)F)cc1 | inactive: 9.75%
95 | CSc1ccc(C(=O)NCC2(N3CCOCC3)CCCCC2)cc1 | inactive: -0.454%
96 | CCOc1ccc(C(=O)NCC2(N3CCOCC3)CCCCC2)cc1 | inactive: -0.578%
97 | O=C(NCC1(N2CCCCC2)CCCCC1)c1cccc([N+](=O)[O-])c1 | inactive: 6.21%
98 | CCN1CCC(Nc2ccc(Cl)cc2)CC1 | inactive: 0.138%
99 | N#CC1(Nc2ccccc2)CCN(CCc2ccccc2)CC1 | inactive: 0.422%
100 | CCCOc1cccc(C(=O)NCC2(N3CCOCC3)CCCCC2)c1 | inactive: -12.6%
101 | O=C(NCC1(N2CCCCC2)CCCCC1)c1cccc(C(F)(F)F)c1 | inactive: -5.04%
102 | CN1CCN(CCOC(=O)C(O)(c2ccccc2)c2ccccc2)CC1 | inactive: 5.7%
103 | COc1ccc(NC2CCN(C(=O)OC(C)(C)C)CC2)cc1 | inactive: -7.3%
104 | CC(C)c1ccc(C(=O)NCC2(N3CCOCC3)CCCCC2)cc1 | inactive: 12.9%
105 | COc1cc(C(=O)NCC2(N3CCCCC3)CCCCC2)ccc1OC(F)F | inactive: 3.18%
106 | O=C(NCC1(N2CCOCC2)CCCCC1)c1cc(=O)[nH]c2ccccc12 | inactive: -17.5%
